The values that follow come from publication PMC5397608 (Journal of Molecular Biology, 2017).

Chains of the proteins cited; added tags and fusions are not shown. A line that says so, or that is headed by a name, gives the form on record, which may keep a tag or linker.
UniProt P15692, other isoform, or with tags, fused parts or gaps: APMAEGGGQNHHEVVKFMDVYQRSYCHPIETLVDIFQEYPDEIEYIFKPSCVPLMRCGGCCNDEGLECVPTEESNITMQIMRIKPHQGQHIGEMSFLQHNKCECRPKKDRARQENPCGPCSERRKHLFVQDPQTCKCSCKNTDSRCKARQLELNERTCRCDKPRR

The target in the assay is T1, recombinant human Vascular Endothelial Growth Factor a (Homo sapiens, UniProt P15692-4, fluorescently labeled with Alexa-647).
T1 construct: human VEGFa, UniProt ID P15692, aa 27-191 as printed; the isoform is my reading of the limits 27-191; also called rhVEGFa; recombinant human VEGFa; source: recombinant
The assay can be described thus: MST; Alexa-647-labelled rhVEGFa constant at 1 nM in solution, mAb2 WT or variants in varying concentrations; 295 K; 25 mM sodium citrate pH 6.0, 125 mM NaCl, 0.05% Tween 20; triplicates; NanoTemper Monolith NT.115. Conditions: both partners purified.

B1: mAb2_WT (antibody, V domains shown)
VH: EVQLVESGGGLVQPGGSLRLSCAASGFTISDYWIHWVRQAPGKGLEWVAGITPAGGYTYYADSVKGRFTISADTSKNTAYLQMNSLRAEDTAVYYCARFVFFLPYAMDYWGQGTLVTVSS
VL: DIQMTQSPSSLSASVGDRVTITCRASQDVSTAVAWYQQKPGKAPKLLIYSASFLYSGVPSRFSGSGSGTDFTLTISSLQPEDFATYYCQQSYTTPPTFGQGTKVEIK
notes: heavy chain variable region of mAb2; PDB 2FJF is the crystal structure of the antibody itself; constant regions of an IgG1 isotype, already in the expression vector; light chain variable region of mAb2; light chain constant region from the expression vector; IgG1; for the comparison with the mutants the wild type was made alongside them in CHO K1; also called wild-type mAb2; antibody 2; source: …
A word on the Kd: it is the constant that tells how readily two partners part at equilibrium. Consider B1, for which the Kd stood at 3.7 ± 1.1 nM.

B2: mAb2_SL52R (antibody, V domains shown)
VH: EVQLVESGGGLVQPGGSLRLSCAASGFTISDYWIHWVRQAPGKGLEWVAGITPAGGYTYYADSVKGRFTISADTSKNTAYLQMNSLRAEDTAVYYCARFVFFLPYAMDYWGQGTLVTVSS
VL: DIQMTQSPSSLSASVGDRVTITCRASQDVSTAVAWYQQKPGKAPKLLIYSARFLYSGVPSRFSGSGSGTDFTLTISSLQPEDFATYYCQQSYTTPPTFGQGTKVEIK
notes: as the heavy chain variable region of m1 (PDB 2FJF); constant regions of an IgG1 isotype, already in the expression vector; as the light chain variable region of m1 (PDB 2FJF), with the stated change; light chain constant region from the expression vector; IgG1; source: CHO K1, transiently transfected, purified (protein A)
For the molecule B2, the Kd was determined as 3.2 ± 1.8 nM.
